This is an account of results in patent publication US10927078B2, “Modulators of indoleamine 2,3-dioxygenase” (GLAXOSMITHKLINE INTELLECTUAL PROPERTY DEVELOPMENT LIMITED, priority 2017, dated 2021).

Protein sequences, listed by entry. Tags and fused reporters are not part of them.
UniProt P14902, whole entry: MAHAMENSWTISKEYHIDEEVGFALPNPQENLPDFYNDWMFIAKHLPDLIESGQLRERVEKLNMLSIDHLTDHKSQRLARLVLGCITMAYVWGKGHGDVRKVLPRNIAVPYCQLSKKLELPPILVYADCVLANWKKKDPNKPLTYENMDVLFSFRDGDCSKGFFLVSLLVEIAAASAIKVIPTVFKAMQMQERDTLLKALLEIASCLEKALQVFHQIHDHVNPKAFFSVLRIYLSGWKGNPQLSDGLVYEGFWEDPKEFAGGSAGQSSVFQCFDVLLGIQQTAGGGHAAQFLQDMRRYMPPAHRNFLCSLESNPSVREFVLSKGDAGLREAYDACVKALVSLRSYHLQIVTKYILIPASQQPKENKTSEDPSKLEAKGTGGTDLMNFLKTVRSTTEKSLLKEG

The assay addresses indoleamine 2, 3-dioxygenase (IDO1) (Homo sapiens, UniProt P14902). In words: PBMC IDO1 assay (kynurenine via mass spectrometry).

Molecules are shown by their SMILES.

`CC(C)CC(NC(=O)c1ccc(Cl)cc1)C1CCN(C(=O)Oc2cccc3cn[nH]c23)CC1` (stereo not shown): the “PBMC PXC50_” value stood at 9.3.
